Assay results: PubChem BioAssay AID624172 (National Center for Advancing Translational Sciences (NCATS), 2012)
This is a selection; strong and weak results do not stand in their true shares. Active and inactive are the calls of the source. Calls come from the whole dose curve; as a rule, active = well fitted activation curve with a large enough effect; inconclusive = small, poorly fitted or top-dose-only effect; inactive = no such curve, though single readings can be large or run the other way.

Amino acid sequences for entries named in this document (tags omitted). A change or cut given only in a name is not applied to a line headed by its entry.
UniProt P43220, whole entry, stated change not applied: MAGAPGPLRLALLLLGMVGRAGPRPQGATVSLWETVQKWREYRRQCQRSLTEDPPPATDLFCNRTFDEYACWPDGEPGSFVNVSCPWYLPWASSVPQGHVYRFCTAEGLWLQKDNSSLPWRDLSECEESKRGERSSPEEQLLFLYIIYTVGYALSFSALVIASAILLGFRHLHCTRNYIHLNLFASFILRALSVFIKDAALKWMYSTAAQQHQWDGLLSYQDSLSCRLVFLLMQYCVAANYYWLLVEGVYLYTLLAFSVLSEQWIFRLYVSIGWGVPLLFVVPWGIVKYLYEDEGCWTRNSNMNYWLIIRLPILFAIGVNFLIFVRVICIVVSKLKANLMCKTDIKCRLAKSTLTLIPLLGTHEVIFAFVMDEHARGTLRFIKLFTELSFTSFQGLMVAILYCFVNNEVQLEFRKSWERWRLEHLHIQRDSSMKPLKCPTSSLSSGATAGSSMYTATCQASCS

Target: Glucagon-like peptide 1 receptor (Homo sapiens) (UniProt P43220)
Assay: qHTS of GLP-1 Receptor Agonists; note: % of control where 0% means no effect
Settings: HEK293 GLP-1R CRE-luciferase, luminescence, 4-6 h, cells express a hypersensitive GLP-1R form
Excerpt: The overall goal of this project was to develop a novel assay for discovering small molecule ligands for class B1 G protein-coupled receptors (GPCRs). Very few agonists (or inverse agonists) with generally weak activity for this entire group of physiologically important receptors are known to date. To establish proof-of-principle that this critical bottleneck can be overcome with a suitable screening approach, our studies focused on the class B1 receptor for glucagon-like peptide-1 (GLP-1R), a potential therapeutic target for diabetes and neurodegenerative disease.
The assay was developed in a "mix and measure" format using a cell-based functional readout. Toward this goal, stably transfected HEK293 cell clones were established that co-express (i) a cAMP-responsive luciferase reporter gene, and (ii) GLP-1Rs that upon ligand interaction either stimulate (agonists) or inhibit (inverse agonists) luciferase activity. In different cell lines to be used for screening, expressed GLP-1Rs are specifically optimized for high sensitivity detection of either weak agonists (hypersensitive receptor) or inverse agonists (constitutively active receptor mutant). In addition, control cell lines were developed that express either the cAMP-responsive reporter gene without recombinant GLP-1Rs (enabling initial exclusion of GLP-1R independent effects of candidate probes), or the reporter gene together with wild type GLP-1Rs (for confirmation of probe activity at this receptor), or the reporter gene in combination with the constitutively active orphan receptor GPR119 (enabling initial exclusion of GLP-1R independent inhibitory effects of candidate inverse agonists).
To that end, this assay was optimized for 1536-well format and screened against the MLSMR.
NIH Molecular Libraries Probe Production Network [MLPCN]
NIH Chemical Genomics Center [NCGC]
PI Name: Martin Beinborn, Tufts Medical Center
In a white solid 1536-well plate, 6 uL of cells are dispensed in DMEM without phenol red, 10% Nu serum, and 1% pen-strep medium. The plates are then incubated for 12 hours at 37 deg C at 5% CO2 before 23 nL of compounds are added. After a 4-6 hr incubation at37 deg C and 5% CO2, 3 uL of detection reagent are added and after a 12 min incubation at RT, a luminescent read is obtained on the ViewLux.

[1] = at 45.6 µM (top of the series) unless noted

**Q.** CP(=O)(Nc1ccc(Cl)cc1Cl)Oc1ccccc1 (stereo unspecified) was tested. Which activation [1] did it give?
**A.** inactive: -2.99%

**Q.** CCCCCCCCCCCCCCCC1C[N+](C)(C)CCOP(C)(=O)O1 (stereo unspecified) was tested. Which activation [1] did it give?
**A.** inactive: 5.6%

**Q.** Which activation [1] does the source give for CP(=O)(OCCOc1ccccc1)OCCOc1ccccc1 here?
**A.** inactive: -4.38%

**Q.** Which activation [1] does the source give for O=[N+]([O-])c1cc([N+](=O)[O-])c(Nc2cccnc2)c([N+](=O)[O-])c1 here?
**A.** inactive: -1.62%

**Q.** O=[N+]([O-])c1ccc2c(c1)C=Nc1ccccc1O2 was tested. Which activation [1] did it give?
**A.** inactive: 8.84%

**Q.** For Cc1cccc(C)c1OP(C)(N)=O (stereo unspecified), which activation [1] is on record?
**A.** inactive: -1.84%

**Q.** How did the activation [1] turn out when CC(C)(C)c1ccc(OP(C)(=O)Nc2ccc(SC(F)(F)F)cc2)cc1 (stereo unspecified) was run?
**A.** inactive: -35.7%

**Q.** How did the activation [1] turn out when Cc1ccc(NP(C)(=O)Oc2ccccc2)c(C)c1 (stereo unspecified) was run?
**A.** inactive: 14.5%

**Q.** With COc1ccccc1OP(C)(=O)Nc1ccc(C)cc1 (stereo unspecified) as the compound, how does the activation [1] read?
**A.** inactive: -4.33%

**Q.** How did the activation [1] turn out when CCOC(=O)c1ccc(NP(C)(=O)Oc2ccccc2)cc1 (stereo unspecified) was run?
**A.** inactive: 4.57%

**Q.** For Cc1cc(C)cc(OP(C)(N)=O)c1 (stereo unspecified), which activation [1] is on record?
**A.** inactive: -3.66%

**Q.** How did the activation [1] turn out when COc1ccc(OP(C)(=O)Nc2cccc(F)c2)cc1 (stereo unspecified) was run?
**A.** inactive: 1.81%

**Q.** COc1ccccc1OP(C)(=O)Nc1cc(Cl)ccc1C (stereo unspecified) was tested. Which activation [1] did it give?
**A.** inactive: 8.65%

**Q.** With CCN(CC)CCCOC(=O)C(O)(c1ccccc1)c1ccccc1 as the compound, how does the activation [1] read?
**A.** inactive: -2.91%

**Q.** COc1ccccc1-c1ccccn1.O=[N+]([O-])c1cc([N+](=O)[O-])c(O)c([N+](=O)[O-])c1 was tested. Which activation [1] did it give?
**A.** inactive: -2.41%

**Q.** Which activation [1] does the source give for O=[N+]([O-])[O-].[NH4+] here?
**A.** inactive: -2.44%

**Q.** How did the activation [1] turn out when CP(=O)(Oc1ccccc1)OC(c1ccccc1)C(F)(F)F (stereo unspecified) was run?
**A.** inactive: -3.08%

**Q.** Cc1cccc(C)c1OP(C)(=O)Nc1ccc(SC(F)(F)F)cc1 (stereo unspecified) was tested. Which activation [1] did it give?
**A.** inactive: 7.08%

**Q.** CP(=O)(Nc1ccc(SC(F)(F)F)cc1)Oc1ccc(Cl)cc1 (stereo unspecified) was tested. Which activation [1] did it give?
**A.** inactive: -5.82%

**Q.** Cc1cc(C)cc(OP(C)(=O)Nc2ccc(SC(F)(F)F)cc2)c1 (stereo unspecified) was tested. Which activation [1] did it give?
**A.** inactive: 10.6%

**Q.** How did the activation [1] turn out when CP(=O)(NC(=O)Nc1ccccc1)Oc1ccccc1 (stereo unspecified) was run?
**A.** inactive: 0.949%

**Q.** Which activation [1] does the source give for CCc1ccc(OP(C)(=O)N2CCN(c3ccc([N+](=O)[O-])cc3)CC2)cc1 (stereo unspecified) here?
**A.** inactive: 10.5%

**Q.** With CN(C)CCS as the compound, how does the activation [1] read?
**A.** inactive: -0.0367%

**Q.** CCOC(=O)c1ccc(NP(C)(=O)Oc2ccc(OC)cc2)cc1 (stereo unspecified) was tested. Which activation [1] did it give?
**A.** inactive: 18.6%

**Q.** Which activation [1] does the source give for O=[N+]([O-])c1cc([N+](=O)[O-])c(O)c([N+](=O)[O-])c1.c1ccc(Oc2ccncc2)cc1 here?
**A.** inactive: -0.538%

**Q.** CCOP(C)(=S)SCC(=O)NC(C)C(=O)O (stereo unspecified) was tested. Which activation [1] did it give?
**A.** inactive: -12%

**Q.** How did the activation [1] turn out when CP(=O)(Nc1ccccn1)Oc1ccc(Cl)cc1 (stereo unspecified) was run?
**A.** inactive: -1.93%

**Q.** Which activation [1] does the source give for CP(=S)(Nn1cnnc1)Oc1ccccc1 (stereo unspecified) here?
**A.** inactive: 0.363%

**Q.** How did the activation [1] turn out when CP(=O)(Nc1ccccc1Br)Oc1ccccc1 (stereo unspecified) was run?
**A.** inactive: 1.28%

**Q.** With COc1ccccc1OP(C)(=O)Nc1ccccc1 (stereo unspecified) as the compound, how does the activation [1] read?
**A.** inactive: 4.29%

**Q.** How did the activation [1] turn out when CC1=C2N=C(C=C3N=C(C(C)=C4[N-][C@@](C)([C@@H]5N=C1[C@](C)(CCC(=O)NC[C@@H](C)OP(=O)([O-])O[C@H]1[C@@H](O)[C@@H](n6cnc7cc(C)c(C)cc76)O[C@@H]1CO)[C@H]5CC(N)=O)[C@@](C)(CC(N)=O)[C@@H]4CCC(N)=O)[C@@](C)(CC(N)=O)[C@@H]3CCC(N)=O)C(C)(C)[C@@H]2CCC(N)=O.[C-]#N.[Co+3] was run?
**A.** inactive: -2.73%

**Q.** O=[N+]([O-])c1cc([N+](=O)[O-])c(Nc2nnnn2CCO)c([N+](=O)[O-])c1 was tested. Which activation [1] did it give?
**A.** inactive: -11.7%

**Q.** Which activation [1] does the source give for COc1ccccc1OP(C)(=O)Nc1c(C)cccc1C (stereo unspecified) here?
**A.** inactive: -9.5%

**Q.** Which activation [1] does the source give for CN1CCCCC1COC(=O)C1(O)c2ccccc2CCc2ccccc21 (stereo unspecified) here?
**A.** inactive: -1.48%

**Q.** With CCCOc1ccc(NP(C)(=O)Oc2ccc(Cl)cc2)cc1 (stereo unspecified) as the compound, how does the activation [1] read?
**A.** inactive: 14.3%

**Q.** Which activation [1] does the source give for CP(=O)(Nc1ccc(SC(F)(F)F)cc1)Oc1ccccc1 (stereo unspecified) here?
**A.** inactive: 3.32%

**Q.** How did the activation [1] turn out when O=[N+]([O-])c1cc([N+](=O)[O-])c(-n2nnc3ccccc32)c([N+](=O)[O-])c1 was run?
**A.** inactive: 2.36%

**Q.** CC(C)N(CCCl)C(C)C was tested. Which activation [1] did it give?
**A.** inactive: 1.42%

**Q.** CN(Cc1cccnc1)C(=O)COc1ccc(Cl)c(Cl)c1.O=[N+]([O-])c1cc([N+](=O)[O-])c(O)c([N+](=O)[O-])c1 was tested. Which activation [1] did it give?
**A.** inactive: 7.11%

**Q.** With O=[N+]([O-])c1cc([N+](=O)[O-])c(-c2cnn(-c3ccccc3)c2)c([N+](=O)[O-])c1 as the compound, how does the activation [1] read?
**A.** inactive: 11.7%

**Q.** Cc1nc2ccc3ccccc3c2s1.O=[N+]([O-])c1cc([N+](=O)[O-])c(O)c([N+](=O)[O-])c1 was tested. Which activation [1] did it give?
**A.** inactive: 2.73%

**Q.** With COc1ccccc1OP(C)(=O)Nc1cccc(Br)c1 (stereo unspecified) as the compound, how does the activation [1] read?
**A.** inactive: -2.8%

**Q.** CCOC(=O)c1ccc(NP(C)(=O)Oc2cc(C)cc(C)c2)cc1 (stereo unspecified) was tested. Which activation [1] did it give?
**A.** inactive: 18.3%

**Q.** How did the activation [1] turn out when Cc1cc(C)cc(OP(C)(=O)Nc2ccc(C)cc2C)c1 (stereo unspecified) was run?
**A.** inactive: 13%

**Q.** Which activation [1] does the source give for Cc1ccc(C)c(NP(C)(=O)Oc2ccccc2)c1 (stereo unspecified) here?
**A.** inactive: 1.87%

**Q.** How did the activation [1] turn out when Cc1cc(C)cc(OP(C)(=O)Nc2ccccn2)c1 (stereo unspecified) was run?
**A.** inactive: -3.82%

**Q.** Which activation [1] does the source give for CP(=O)(Nc1cccc(Br)c1)Oc1ccccc1 (stereo unspecified) here?
**A.** inactive: 14%

**Q.** Which results are given for O=[N+]([O-])c1cccc([N+](=O)[O-])c1?
**A.** activation (at 45.6 µM (top of the series)): inactive: 13.8%; activation (at 96 µM (top of the series)): inactive: -7.87%

**Q.** With CC1=NCCc2c1[nH]c1ccccc21.O=[N+]([O-])c1cc([N+](=O)[O-])c(O)c([N+](=O)[O-])c1 as the compound, how does the activation [1] read?
**A.** inactive: -20.2%

**Q.** O=[N+]([O-])OCC(CO[N+](=O)[O-])(CO[N+](=O)[O-])CO[N+](=O)[O-] was tested. Which activation [1] did it give?
**A.** inactive: -2.49%
